{"source": "paper PMC5539068", "about": "“Structural optimization and evaluation of novel 2-pyrrolidone-fused (2-oxoindolin-3-ylidene)methylpyrrole derivatives as potential VEGFR-2/PDGFRβ inhibitors” (Chemistry Central Journal, 2017)", "key": {"HCT116 cells": {"tested_on": "HCT116 cells", "assay": "Cell proliferation assay (MTT), HCT116", "details": "versus Detroit 551"}, "HUVEC cells": {"tested_on": "HUVEC cells", "assay": "In-vitro VEGF-induced Matrigel tube formation assay", "format": "cell-based, human", "details": "versus sunitinib", "procedure": "The in vitro tube formation assay was assessed using ibidi μ-Slides (15-well, ibidi GmbH, Martinsried, Germany) in accordance with manufacturer’s protocol. Briefly, growth factor reduced Matrigel (10 μl) (Sigma, St. Louis MO) was added to the inner well of ibidi μ-Slides, and incubated at 37 °C for 1 h. […] 10,000 HUVEC cells in 50 μl of above growth medium was added to Matrigel (Sigma, St. Louis MO, USA) coated ibidi μ-Slides. After 6 h of incubation at 37 °C, the supernatant was discarded, and 50 μl of serum-free medium with diluted calcein AM (6.25 μg/ml) was added to above ibidi μ-Slides. After incubation in the dark at room temperature for 30 min, the μ-Slides were washed with PBS (50 μl) and fluorescence pictures were taken at 485 nm with a Leica DM1000 LED microscope (Leica Microsystems, Wetzlar, Hessen, Germany)."}}}
{"smiles": "CCN(CC)CCN1Cc2[nH]c(/C=C3\\C(=O)Nc4ccc(S)cc43)c(C)c2C1=O", "note": "[Compound 15, (Z)-3-((5-(2-(diethylamino)ethyl)-3-methyl-4-oxo-1,4,5,6-tetrahydropyrrolo[3,4-b]pyrrol-2-yl)methylene)-5-mercaptoindolin-2-one]", "values": [{"measurement": "selective index (SI) HCT116", "setting": "HCT116 cells", "value": ">4.27"}, {"measurement": "potency in inhibiting in vitro tube formation relative to sunitinib in terms of IC50", "setting": "HUVEC cells", "value": "threefold stronger"}]}
